Laboratory results: paper PMC6332004, “Transport of Twelve Coumarins from Angelicae Pubescentis Radix across a MDCK-pHaMDR Cell Monolayer—An in Vitro Model for Blood-Brain Barrier Permeability” (Molecules, 2015)

System: MDCK-pHaMDR cell monolayer
Assay: Bidirectional transport across MDCK-pHaMDR cell monolayer (in vitro BBB model)
Details: well-absorbed Papp >1 × 10^−5 cm/s, poorly absorbed <1 × 10^−6 cm/s

SMILES | absorption class through the BBB according to Papp AP-BL
CC(C)=CCOc1c2ccoc2cc2oc(=O)ccc12 [Compound 10, isoimperatorin] | moderately absorbed
C/C=C(/C)C(=O)OC(C)(C)[C@@H]1Cc2c(ccc3ccc(=O)oc23)O1 [Compound 11, columbianadin] | moderately absorbed
